From patent publication US7084136B2, “Drug composition antagonistic to both PGD2/TXA2 receptors” (Shionogi & Co., Ltd., priority 2000, dated 2006)

The chains behind the UniProt entries cited, without tags or fusion partners.
UniProt Q13258, whole entry: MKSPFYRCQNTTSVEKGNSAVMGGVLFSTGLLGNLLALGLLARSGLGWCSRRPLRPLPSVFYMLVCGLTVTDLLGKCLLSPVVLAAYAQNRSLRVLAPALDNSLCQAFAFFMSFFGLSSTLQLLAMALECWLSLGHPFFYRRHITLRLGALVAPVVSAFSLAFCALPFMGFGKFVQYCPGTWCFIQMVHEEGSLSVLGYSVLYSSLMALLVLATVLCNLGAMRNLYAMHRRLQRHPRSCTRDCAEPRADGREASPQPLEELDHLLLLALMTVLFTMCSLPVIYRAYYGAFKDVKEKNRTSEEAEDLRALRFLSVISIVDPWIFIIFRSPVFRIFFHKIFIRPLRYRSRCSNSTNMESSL
UniProt P21731, whole entry: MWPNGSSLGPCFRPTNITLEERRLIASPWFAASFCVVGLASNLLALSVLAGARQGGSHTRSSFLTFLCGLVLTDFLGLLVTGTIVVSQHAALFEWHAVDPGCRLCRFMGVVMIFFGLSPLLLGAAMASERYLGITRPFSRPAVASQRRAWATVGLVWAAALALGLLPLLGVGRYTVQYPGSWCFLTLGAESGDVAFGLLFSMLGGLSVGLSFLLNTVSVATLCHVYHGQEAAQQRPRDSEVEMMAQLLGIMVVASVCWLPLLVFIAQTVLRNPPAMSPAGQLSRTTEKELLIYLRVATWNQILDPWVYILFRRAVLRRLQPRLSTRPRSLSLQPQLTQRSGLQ

Experiments:
[1] = molecular target: PGD2 receptor (Homo sapiens, UniProt Q13258); assay: Antagonistic activity against PGD2 receptor using human platelet (inhibition of PGD2-induced cAMP increase); conditions: read-out: Inhibitory activity for the increase of cAMP caused by PGD2 in human platelet IC50; human platelet; 0.1 μM PGD2
Protocol: Experiment 3 Evaluation of Antagonistic Activity Against PGD2 Receptor
Receptor Using Human Platelet
Peripheral blood was collected from a healthy volunteer using a syringe in which 1/9 volume of a citric acid/dextrose solution was previously added. The sample was subjected to centrifugation at 1200 rpm for 10 min to obtain the supernatant (PRP: platelet rich plasma). The resultant PRP was washed 3 times with a washing buffer and the number of platelets was counted with a micro cell counter. A suspension adjusted to contain the platelets at a final concentration of 5×10^8/ml was warmed at 37° C., then subjected to the pre-treatment with 3-isobutyl-1-methylxanthine (0.5 mM) for 5 min. To the suspension was added a test compound diluted at various concentration, and 10 minutes later, 0.1 μM PGD2 was added to induce the reaction 2 minutes later, hydrochloric acid was added to terminate the reaction. The platelet was destroyed with an ultrasonic homogenizer. After centrifugation, the cAMP in the supernatant was determined by radioimmunoassay. PGD2 receptor antagonism of a drug was evaluated as follows: the inhibition rate regarding cAMP increased by the addition of PGD2 was determined at each concentration, and the concentration of the drug required for 50% inhibition (IC50) was calculated.

[2] = molecular target: TXA2 receptor (Homo sapiens, UniProt P21731); assay: Binding activity to TXA2 receptor ([3H](+)-S-145 sodium salt, human platelet membrane fraction); conditions: read-out: Binding activity to TXA2 receptor in human platelet membrane fraction IC50; human platelet membrane fraction; 2 nM [3H](+)-S-145 sodium salt

Row | Structure (SMILES) | IC50 [1] [nM] | IC50 [2] [nM]
1 | CC1(C)[C@H]2C[C@H](CCCCOCC(=O)NS(=O)(=O)c3ccccc3)[C@@H](NC(=O)c3ccc(S(=O)(=O)n4cccc4)s3)[C@@H]1C2 | 20 | 20
2 | Cc1ccc(C)n1S(=O)(=O)c1ccc(C(=O)N[C@H]2[C@H]3CC[C@H](C3)[C@@H]2CCCCSCC(=O)O)s1 | 27 | 12
3 | COc1ccc2ccccc2c1Cc1ccc(C(=O)N[C@H]2[C@H]3CC[C@H](C3)[C@@H]2CCCCOCC(=O)O)s1 | 24 | 100
4 | CC1(C)[C@H]2C[C@H](CCCCOCC(=O)O)[C@@H](NC(=O)c3ccc(Cc4cccc5c4OCC5)s3)[C@@H]1C2 | 19 | 12
5 | CC1(C)[C@H]2C[C@H](CCCCC(=O)O)[C@@H](NC(=O)c3ccc(CSc4cccs4)s3)[C@@H]1C2 | 47 | 13
6 | O=C(O)COCCCC[C@H]1[C@@H]2CC[C@@H](C2)[C@@H]1NC(=O)c1csc2c(Cc3ccccc3Cl)cccc12 | 18 | 74
7 | O=C(O)COCCCC[C@H]1[C@@H]2CC[C@@H](C2)[C@@H]1NC(=O)c1csc2c(Cc3ccccc3)cc(O)cc12 | 20 | 7.6
8 | CC1(C)[C@H]2C[C@H](CCCCOCC(=O)NS(C)(=O)=O)[C@@H](NC(=O)c3ccc(S(=O)(=O)n4cccc4)s3)[C@@H]1C2 | 120 | 11
9 | CCCCc1cc2c(c(Sc3ccc(C(=O)N[C@H]4[C@H]5CC[C@H](C5)[C@@H]4CCCCOCC(=O)O)s3)c1)OCC2 | 110 | 19
10 | CC1(C)[C@H]2C[C@H](CCCCOCC(=O)O)[C@@H](NC(=O)c3ccc(Cc4coc5ccc(O)cc45)s3)[C@@H]1C2 | 28 | 55
11 | Cc1cccn1S(=O)(=O)c1ccc(C(=O)N[C@@H]2[C@@H](CCCCSCC(=O)O)C[C@H]3C[C@@H]2C3(C)C)s1 | 13 | 3.6
12 | O=C(O)COCCCC[C@H]1[C@@H]2CC[C@@H](C2)[C@@H]1NC(=O)c1ccc(S(=O)(=O)N2CCOc3ccccc32)s1 | 94 | 13
13 | CC1(C)[C@H]2C[C@H](CCCCC(=O)O)[C@@H](NC(=O)c3csc4c(Cc5ccccc5)cccc34)[C@@H]1C2 | 24 | 47
14 | CC1(C)[C@H]2C[C@H](CCCCC(=O)O)[C@@H](NC(=O)c3ccc(Cc4ccccc4)s3)[C@@H]1C2 | 45 | 13
15 | O=C(O)/C=C/CCCC[C@H]1[C@@H]2CC[C@@H](C2)[C@@H]1NC(=O)c1ccc(Cc2ccccc2)s1 | 92 | 65
16 | O=C(O)COCCCC[C@H]1[C@@H]2CC[C@@H](C2)[C@@H]1NC(=O)c1csc2c(Cc3ccccc3O)cccc12 | 28 | 68

Row | Structure (SMILES) | IC50 [1] [nM] | IC50 [2] [nM]
17 | COc1ccccc1Cc1ccc(C(=O)N[C@@H]2[C@@H](CCCC/C=C/C(=O)O)C[C@H]3C[C@@H]2C3(C)C)s1 | 13 | 102
18 | COc1ccc2ccccc2c1Cc1ccc(C(=O)N[C@H]2[C@H]3CC[C@H](C3)[C@@H]2CCCC/C=C/C(=O)O)s1 | 97 | 51
19 | O=C(O)COCCCC[C@H]1[C@@H]2CC[C@@H](C2)[C@@H]1NC(=O)c1csc2c(S(=O)(=O)c3ccccc3)cccc12 | 33 | 29
20 | COc1ccccc1Cc1cccc2c(C(=O)N[C@H]3[C@H]4CC[C@H](C4)[C@@H]3CCCCOCC(=O)O)csc12 | 110 | 62
21 | Cc1ccc(C)n1S(=O)(=O)c1ccc(C(=O)N[C@@H]2[C@@H](CCCC/C=C/C(=O)O)C[C@H]3C[C@@H]2C3(C)C)s1 | 32 | 0.6
22 | CC1(C)[C@H]2C[C@H](CCCCCCC(=O)O)[C@@H](NC(=O)c3ccc(Sc4cccs4)s3)[C@@H]1C2 | 42 | 40
23 | Cc1ccc(C)n1S(=O)(=O)c1ccc(C(=O)N[C@@H]2[C@@H](CCCCSCC(=O)O)C[C@H]3C[C@@H]2C3(C)C)s1 | 23 | 15
24 | CC1(C)[C@H]2C[C@H](CCCCOCC(=O)O)[C@@H](NC(=O)c3ccc(S(=O)(=O)n4cccc4)s3)[C@@H]1C2 | 54 | 1.2
25 | O=C(O)CCCCCC[C@H]1[C@@H]2CC[C@@H](C2)[C@@H]1NC(=O)c1ccc(CSc2cccs2)s1 | 82 | 24
26 | CC1(C)[C@H]2C[C@H](CCCCCCC(=O)O)[C@@H](NC(=O)c3ccc(S(=O)(=O)c4cccs4)s3)[C@@H]1C2 | 59 | 3.8
27 | O=C(O)CCCCCC[C@H]1[C@@H]2CC[C@@H](C2)[C@@H]1NC(=O)c1csc2c(Cc3ccccc3)cccc12 | 36 | 84
28 | Cc1cccn1S(=O)(=O)c1ccc(C(=O)N[C@@H]2[C@@H](CCSCCCC(=O)O)C[C@H]3C[C@@H]2C3(C)C)s1 | 77 | 21
29 | Cc1ccc(C)n1S(=O)(=O)c1ccc(C(=O)N[C@@H]2[C@@H](CCCCOCC(=O)O)C[C@H]3C[C@@H]2C3(C)C)s1 | 34 | 0.6
30 | O=C(O)CSCCCC[C@H]1[C@@H]2CC[C@@H](C2)[C@@H]1NC(=O)c1ccc(S(=O)(=O)n2cccc2)s1 | 18 | 10
31 | O=C(O)/C=C/CCCC[C@H]1[C@@H]2CC[C@@H](C2)[C@@H]1NC(=O)c1ccc(S(=O)(=O)n2cccc2)s1 | 64 | 2.6
32 | CC1(C)[C@H]2C[C@H](CCCCOCC(=O)O)[C@@H](NC(=O)c3ccc(S(=O)(=O)N4CCCc5ccccc54)s3)[C@@H]1C2 | 67 | 1.7

The remaining compounds from weak to strong by IC50 [1], led by results:

Row | IC50 [1] [nM] | IC50 [2] [nM] | Structure (SMILES)
33 | 190 | 19 | Cc1cccn1S(=O)(=O)c1ccc(C(=O)N[C@@H]2[C@@H](CCCCCCC(=O)NS(C)(=O)=O)C[C@H]3C[C@@H]2C3(C)C)s1
34 | 85 | 1.2 | O=C(O)/C=C/CCCC[C@H]1[C@@H]2CC[C@@H](C2)[C@@H]1NC(=O)c1ccc(S(=O)(=O)c2cccs2)s1
35 | 79 | 4.1 | CC1(C)[C@H]2C[C@H](CCCC/C=C/C(=O)O)[C@@H](NC(=O)c3csc4c(S(=O)(=O)c5ccccc5)cccc34)[C@@H]1C2
36 | 75 | 4.5 | CC1(C)[C@H]2C[C@H](CCCCOCC(=O)O)[C@@H](NC(=O)c3csc4c(S(=O)(=O)c5ccccc5)cccc34)[C@@H]1C2
37 | 61 | 1.9 | Cc1cccn1S(=O)(=O)c1ccc(C(=O)N[C@@H]2[C@@H](CCSCC(=O)O)C[C@H]3C[C@@H]2C3(C)C)s1
38 | 57 | 63 | O=C(O)CCCCCC[C@H]1[C@@H]2CC[C@@H](C2)[C@@H]1NC(=O)c1ccc(Cc2ccccc2)s1
39 | 42 | 46 | CC1(C)[C@H]2C[C@H](CCCC/C=C/C(=O)O)[C@@H](NC(=O)c3ccc(Cc4coc5ccc(O)cc45)s3)[C@@H]1C2
40 | 39 | 44 | CS(=O)(=O)NC(=O)COCCCC[C@H]1[C@@H]2CC[C@@H](C2)[C@@H]1NC(=O)c1ccc(S(=O)(=O)n2cccc2)s1
41 | 36 | 34 | O=C(O)CCCCCC[C@H]1[C@@H]2CC[C@@H](C2)[C@@H]1NC(=O)c1ccc(Cc2ccsc2)s1
42 | 28 | 39 | O=C(O)COCCCC[C@H]1[C@@H]2CC[C@@H](C2)[C@@H]1NC(=O)c1csc2c(Cc3ccccc3F)cccc12
43 | 27 | 82 | CC1(C)[C@H]2C[C@H](CCCCCCC(=O)O)[C@@H](NC(=O)c3ccc(Cc4ccccc4)s3)[C@@H]1C2
44 | 27 | 6.3 | O=C(O)COCCCC[C@H]1[C@@H]2CC[C@@H](C2)[C@@H]1NC(=O)c1csc2c(Cc3ccccc3F)cc(O)cc12
45 | 26 | 119 | COc1ccccc1Cc1ccc(C(=O)N[C@@H]2[C@@H](CCCCOCC(=O)O)C[C@H]3C[C@@H]2C3(C)C)s1
46 | 21 | 77 | COc1ccc2ccccc2c1Cc1ccc(C(=O)N[C@@H]2[C@@H](CCCCOCC(=O)O)C[C@H]3C[C@@H]2C3(C)C)s1
47 | 19 | 37 | O=C(O)COCCCC[C@H]1[C@@H]2CC[C@@H](C2)[C@@H]1NC(=O)c1coc2c(Cc3ccccc3F)cccc12
48 | 19 | 37 | CC1(C)[C@H]2C[C@H](CCCCCCC(=O)O)[C@@H](NC(=O)c3csc4c(Cc5ccccc5)cccc34)[C@@H]1C2
49 | 12 | 1.4 | Cc1ccc(C)n1S(=O)(=O)c1ccc(C(=O)N[C@H]2[C@H]3CC[C@H](C3)[C@@H]2CCCCOCC(=O)O)s1
